Laboratory results: patent US20210301315A1, “METHODS FOR TREATING POLYMICROBIAL INFECTIONS” (priority 2017, published 2021)
“Also recorded” adds a separate entry of the source.

System: Coagulase-negative Staphylococcus (CoNS) and S. agalactiae
Settings: CoNS and S. agalactiae together v. expected from each species alone (HSAP/UP)

Structure (SMILES)	change in antibiotic resistance of the pair of organisms
O=C(O)c1cn(C2CC2)c2cc(N3CCNCC3)c(F)cc2c1=O [Ciprofloxacin, ciprofloxacin]	decrease in resistance; also recorded: decreased odds of resistance
CO/N=C(\C(=O)N[C@@H]1C(=O)N2C(C(=O)O)=C(CSc3nc(=O)c(=O)[nH]n3C)CS[C@H]12)c1csc(N)n1 [Ceftriaxone, ceftriaxone]	decrease in resistance; also recorded: decreased odds of resistance
